Values of other authors as cited in patent US20240269123A1, “MUSCLE REGENERATION PROMOTER” (priority 2021, published 2024).

Tested on: histamine H3 receptor
Conditions: statement taken from the literature; cited from earlier work

N=C(N)SCCc1c[nH]cn1 [Compound 8, 2-(1H-imidazol-4-yl)ethyl carbamimidothioate]
selectivity of agonist activity for the histamine H3 receptor over other histamine receptors: selective histamine H3 receptor agonist
